Reference: ChEMBL document CHEMBL5108047 (J Med Chem, 2022)

Conditions: mouse, microsomes

CLH: 31 µL/min/mg
Compound: O=C(Cc1ccc(C(F)(F)F)cc1C(F)(F)F)N(CC#Cc1cccnn1)c1ccccc1
